The values that follow come from PubChem BioAssay AID493014 (National Center for Advancing Translational Sciences (NCATS), 2011).

The list shows a part of the results. Results filed as inconclusive are left out. Active and inactive are the calls of the source. The call rests on the fitted dose curve; in most records, active means well fitted inhibition curve with a large enough effect in the signal ratio, with a control signal flat (not every such curve was filed as active); inconclusive means small, poorly fitted or top-dose-only effect, or effect the other way, or a change in a side signal; inactive means flat fitted curve, though single readings scatter; the % refers to the signal ratio.

The assay in a line: qHTS Assay to Find Inhibitors of Chronic Active B-Cell Receptor Signaling.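 Further: plate controls were basal doxycycline-induced cells for no effect and cells given 10 µM MG132 for full effect.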 The conditions noted are these: ABC-DLBCL IkBa-CBG/CBR reporter, luminescence ratio (green luciferase fused to IkBa over red control in TMD8 lymphoma cells), 4 h; at 46.1 µM (top of the series). An excerpt: NIH Molecular Libraries Probe Production Network [MLPCN] NIH Chemical Genomics Center [NCGC] MLPCN Grant: 1 R03 DA031086-01A1 PI Name: Dr. R. Eric Davis NCGC Assay Overview: Diffuse large B-cell lymphoma (DLBCL) is the most common category of non-Hodgkin lymphoma, with ~20,000 new cases per year in the United States. DLBCL should be regarded as a collection of different neoplasms. Microarray gene expression analysis has defined two principal types of DLBCL, named for their similarity to normal B cell stages or activation states: a germinal center B-cell (GCB) type, and an activated B-cell (ABC) type. In ABC-DLBCL, a constitutive high-level activity of the NF-kappaB family of transcription factors has been observed (1) and NF-kappaB target genes are more highly expressed in ABC primary tumors than in GCB tumors. Functional studies have shown a constitutive high-level activity of the IkappaB (inhibitor of kappa-B) kinase (IKK) complex. […] Further analysis of DLBCL primary tumors for NF-kappaB target gene expression imply that although CARD11 is required for constitutive IKK activity in all ABC-DLBCL lines, mutations in CARD11 may be the root cause of IKK activation only in lines or tumors with such mutations. In other words, CARD11 mutations may explain NF-kappaB activation in only 10% of ABC-DLBCL cases. […] This process has been termed 'chronic active BCR signaling' (CABS). The goal of this screen is to find small-molecule inhibitors of the CABS pathway found in ABC-DLBCL lines using a cell-based assay that measures IkappaBalpa stability, which has already been extensively validated in the OCI-Ly3 line (PubChem AID:445; REF: 4). […] The assay uses green (CBG68) and red (CBR) emitting beetle luciferases [Chroma-GloTM developed by Promega Corp.] where the green luciferase is fused to IkappaBalpha and the red luciferase is present in its native state. Both luciferase genes are stably present in the TMD8 human ABC DLBCL cell line, but their expression is under the control of tetracycline-inducible promoters. Following the addition of doxycycline to induce expression of the luciferases, the green luminescence in control cultures rises only slowly because the CBG fusion partner IkappaBalpha is targeted by IKK activity for rapid degradation. In contrast, green luminescence rises rapidly in the presence of proteasome inhibitors or IKK inhibitors. The rise in red luminescence of CBR is not affected by proteasome or IKK inhibitors, and serves as normalization for cell number and nonspecific effects. Compounds were screened as a concentration-titration series that ranged from 46 uM to 3 nM.
NCGC Assay Protocol Summary: Cells were seeded in 1536-well plates at 5000 cells/4uL in IMDM medium containing 0.5% FBS, w/o phenol red, 1% penicillin/streptomycin. Then, 23 nL of compounds or DMSO were delivered to each well using a pin tool. One uL 20ng/ml doxycycline was then dispensed into white solid 1536-well plates and the plates were incubated at 37C/5% C02 in a cell incubator for 4 hrs. Then 4 uL luminescent substrate mix (in-house prepared: 150 mM Tris-Cl, pH 7.6, 3 mM MgCl2, 1% Triton X-100, 5 mM DTT, 0.2 mM CoA, 0.15 mM ATP, 5 mM D-luciferin, final concentrations) was added to each well. The plate was incubated at r.t. for 10-15 min. The plates were measured on a ViewLux plate reader for green luminescence (540/20 nm filter) and red luminescence (618/8 nm filter). The green and red luminescent signals were corrected for red and green luminescence filter overlap using previously determined filter calibration constants (determined using the procedure outlined in the Promega Technical Manual; REF 4). The %Activity was determined from the ratio of corrected green/red luminescent values. MG132 were used as control. […] Red luminescent %Activity was normalized to the difference between red luminesence in basal cells (0%Activity) and zero luminescence (-100% Activity). […]
As for `O=C(NCC1(N2CCCCC2)CCCCC1)c1cncc(Br)c1`, the activity change, negative = inhibition was inactive: 5.53%. Turning to `O=C(OC1CN2CCC1CC2)c1ccc([N+](=O)[O-])cc1` (configuration not stated), the activity change, negative = inhibition is inactive: -2.27%.

For the compound `CCCOc1ccc(C(=O)NCC2(N(C)C)CCCCC2)cc1OC`, the activity change, negative = inhibition was inactive: 3.26%. As to `O=[N+]([O-])c1cc([N+](=O)[O-])c(OC2CCCCC2O)c([N+](=O)[O-])c1` (configuration not stated), the activity change, negative = inhibition was inactive: 4.48%. As to `CN(C)c1cccc(C(=O)NCC2(N3CCCCC3)CCCCC2)c1`, the activity change, negative = inhibition is inactive: 3.58%.

In the case of `CC(C)c1ccc(NC2CCN(C(=O)OC(C)(C)C)CC2)cc1`, the activity change, negative = inhibition was inactive: -18.7%.

In the case of `COc1cc(OC)c(C(=O)NCC2(N(C)C)CCCCC2)cc1OC`, the activity change, negative = inhibition is inactive: 5.53%. The result for `O=C(NCC1(N2CCOCC2)CCCCC1)c1cc(F)c(F)cc1Cl` reads inactive: -0.252%; that for `O=C(NCC1(N2CCCCC2)CCCCC1)c1cccc(C(F)(F)F)c1`, inactive: 2.57%.

In the case of `CN1CCN(CCOC(=O)C(O)(c2ccccc2)c2ccccc2)CC1`, the activity change, negative = inhibition was inactive: 4.96%. `CC(C)c1ccc(C(=O)NCC2(N3CCOCC3)CCCCC2)cc1`: the activity change, negative = inhibition is inactive: 9.33%.

Take `COc1cc(C(=O)NCC2(N3CCCCC3)CCCCC2)ccc1OC(F)F`: the activity change, negative = inhibition is inactive: -26.4%. `O=C(NCC1(N2CCOCC2)CCCCC1)c1cc(=O)[nH]c2ccccc12`: the activity change, negative = inhibition is inactive: -1.36%.

On to `O=C(NCC1(N2CCCCC2)CCCCC1)c1ccc(OC(F)F)cc1`, for which the activity change, negative = inhibition was inactive: 0.831%.

Regarding `O=C(NCC1(N2CCCCC2)CCCCC1)c1cccc([N+](=O)[O-])c1`, the activity change, negative = inhibition was inactive: -13.8%. As for `CSc1ccc(C(=O)NCC2(N3CCOCC3)CCCCC2)cc1`, the activity change, negative = inhibition was inactive: 8.32%.

With `CCN1CCC(Nc2ccc(Cl)cc2)CC1`, the activity change, negative = inhibition is inactive: -0.598%. Regarding `N#CC1(Nc2ccccc2)CCN(CCc2ccccc2)CC1`, the activity change, negative = inhibition is inactive: 10.8%. As to `CCOC(=O)N1CCC(Nc2cccc(C)c2)CC1`, the activity change, negative = inhibition was inactive: 3.09%. In the case of `Cc1ccc(OCC(C)C)c(CN(CCCl)CCCl)c1`, the activity change, negative = inhibition was inactive: 2.76%. With `CCOc1ccc(C)cc1CN(CCCl)CCCl`, the activity change, negative = inhibition is inactive: -0.0325%. Take `CCCCOc1ccc(C(=O)NCC2(N3CCOCC3)CCCCC2)cc1`: the activity change, negative = inhibition is inactive: -0.659%. The value for `O=C(NCC1(N2CCCCC2)CCCCC1)c1ccc(F)cc1` was inactive: 6.74%.

`COc1ccc(NC2CCN(CCc3ccccc3)CC2)c(OC)c1`: the activity change, negative = inhibition was inactive: -1.56%.

Consider `CCOC(=O)N1CCC(Nc2ccc(F)cc2)CC1`, for which the activity change, negative = inhibition was inactive: 6.29%.

With `O=C(NCC1(N2CCOCC2)CCCCC1)c1cc2ccccc2o1`, the activity change, negative = inhibition is inactive: 0.149%. The value for `O=C(NCC1(N2CCCCC2)CCCCC1)c1ccc(Cl)nc1` was inactive: 0.0508%; that for `Cc1cc(C)cc(N(C(=O)c2ccccc2)C2CCN(C(=O)OC(C)(C)C)CC2)c1` was inactive: -0.621%. The value for `CCOC(=O)N1CCC(Nc2ccc(OC)cc2)CC1` was inactive: 5.13%; that for `O=C(NCC1(N2CCCCC2)CCCCC1)c1ccc(Cl)s1` was inactive: 5.32%. For the compound `N#CC1(Nc2ccccc2)CCN(Cc2ccccc2)CC1`, the activity change, negative = inhibition is inactive: 2.2%. Regarding `O=C(OC1CN2CCC1CC2)C1c2ccccc2Oc2ccccc21` (configuration not stated), the activity change, negative = inhibition was inactive: 2.02%. Take `COc1ccc(Cl)cc1C(=O)NCC1(N2CCOCC2)CCCCC1`: the activity change, negative = inhibition was inactive: 6.18%. The result for `O=C(NCC1(N2CCCCC2)CCCCC1)c1ccc(=O)[nH]c1` reads inactive: -0.109%; that for `O=C(NCC1(N2CCCCC2)CCCCC1)c1cccs1`, inactive: 0.0717%; that for `COc1ccc(C(=O)NCC2(N3CCCCC3)CCCCC2)cc1`, inactive: 6.55%. The result for `CC(C)(C)OC(=O)N1CCC(N(C(=O)c2ccccc2)c2ccc(F)cc2)CC1` reads inactive: -2.83%; that for `COc1ccc(C(=O)NCC2(N3CCCCC3)CCCCC2)c(OC)c1OC`, inactive: -0.443%; that for `CSc1ccccc1C(=O)NCC1(N2CCCCC2)CCCCC1`, inactive: 1.47%.

For the compound `CCC(CO)(C(=O)OC1CN2CCC1CC2)c1ccccc1` (configuration not stated), the activity change, negative = inhibition is inactive: 0.146%. The result for `COc1cccc(C(=O)N(c2cc(C)cc(C)c2)C2CCN(C(=O)OC(C)(C)C)CC2)c1` reads inactive: 4.77%. As for `CCCOc1ccc(C)cc1CN(CCCl)CCCl`, the activity change, negative = inhibition was inactive: 0.282%. On to `CN1CCC(Nc2ccc(Cl)cc2)CC1`, for which the activity change, negative = inhibition is inactive: -1.38%. As to `CCOc1ncccc1C(=O)NCC1(N2CCOCC2)CCCCC1`, the activity change, negative = inhibition was inactive: 4.55%.

Turning to `CN1CCC(Nc2ccc(F)c(Cl)c2)CC1`, the activity change, negative = inhibition was inactive: -0.236%.

As to `CCCOc1ccc(C(=O)NCC2(N(C)C)CCCCC2)cc1`, the activity change, negative = inhibition was inactive: 1.85%.

Regarding `CC(C)(C)OC(=O)N1CCC(Nc2ccccc2)CC1`, the activity change, negative = inhibition was inactive: 4.74%. As for `O=C(O)C1(Nc2ccccc2)CCN(Cc2ccccc2)CC1`, the activity change, negative = inhibition is inactive: 1.33%. Turning to `CCN1CCC(Nc2cccc(F)c2)CC1`, the activity change, negative = inhibition is inactive: 0.432%. `O=C(NCC1(N2CCCCC2)CCCCC1)c1ccco1`: the activity change, negative = inhibition was inactive: 0.529%. Regarding `CN(C)c1ccc(C(=O)NCC2(N3CCCCC3)CCCCC2)cc1`, the activity change, negative = inhibition was inactive: -0.742%. Take `COc1cc(OC)cc(C(=O)NCC2(N3CCCCC3)CCCCC2)c1`: the activity change, negative = inhibition was inactive: 3.78%. The value for `Cc1ccc(C(=O)NCC2(N3CCCCC3)CCCCC2)o1` was inactive: -0.793%. Take `Fc1ccccc1NC1CCN(Cc2ccccc2)CC1`: the activity change, negative = inhibition is inactive: -1.32%.

Turning to `c1ccc(CN2CCC(Nc3ccccc3)CC2)cc1`, the activity change, negative = inhibition was inactive: 4.16%. Consider `CCCN1CCC(Nc2cc(OC)cc(OC)c2)CC1`, for which the activity change, negative = inhibition is inactive: -6.99%.

As for `CN(C)C1(CNC(=O)c2cccc(C#N)c2)CCCCC1`, the activity change, negative = inhibition was inactive: 5.22%. Turning to `CC(C)(C)OC(=O)N1CCC(N(C(=O)c2ccccc2)c2ccc(Cl)cc2)CC1`, the activity change, negative = inhibition was inactive: 0.0255%. As for `N#Cc1ccc(C(=O)NCC2(N3CCCCC3)CCCCC2)cc1`, the activity change, negative = inhibition is inactive: 1.26%. Turning to `CCOC(=O)C(CC)C1=NC(C)(C)Cc2ccccc21.O=[N+]([O-])c1cc([N+](=O)[O-])c(O)c([N+](=O)[O-])c1` (configuration not stated), the activity change, negative = inhibition was inactive: -0.0921%. As for `N/C(=N\O)c1c(N)no[n+]1[O-]`, the activity change, negative = inhibition is inactive: -0.749%.

Regarding `CCOC(=O)N1CCC(Nc2ccc(C)cc2)CC1`, the activity change, negative = inhibition was inactive: -1.09%. For the compound `CCc1cc(C(=O)NCC2(N3CCCCC3)CCCCC2)sc1C`, the activity change, negative = inhibition was inactive: 3.56%. The result for `O=C(OC1CN2CCC1CC2)C1c2ccccc2C=Cc2ccccc21` (configuration not stated) reads inactive: -5.96%; that for `O=C(O)c1cccc(Nc2c([N+](=O)[O-])cc([N+](=O)[O-])cc2[N+](=O)[O-])c1`, inactive: 13.8%. Consider `O=C(NCC1(N2CCOCC2)CCCCC1)c1cc(Br)ccc1Cl`, for which the activity change, negative = inhibition was inactive: -0.242%.

`COc1cc(C(=O)NCC2(N3CCOCC3)CCCCC2)cc(OC)c1C`: the activity change, negative = inhibition was inactive: 1.84%.
